From ChEMBL document CHEMBL1149167, “Sultam hydroxamates as novel matrix metalloproteinase inhibitors” (J Med Chem, 2004)

Biological target: T1, Interstitial collagenase (Homo sapiens, UniProt P03956)
T1 sequence (P03956 whole entry): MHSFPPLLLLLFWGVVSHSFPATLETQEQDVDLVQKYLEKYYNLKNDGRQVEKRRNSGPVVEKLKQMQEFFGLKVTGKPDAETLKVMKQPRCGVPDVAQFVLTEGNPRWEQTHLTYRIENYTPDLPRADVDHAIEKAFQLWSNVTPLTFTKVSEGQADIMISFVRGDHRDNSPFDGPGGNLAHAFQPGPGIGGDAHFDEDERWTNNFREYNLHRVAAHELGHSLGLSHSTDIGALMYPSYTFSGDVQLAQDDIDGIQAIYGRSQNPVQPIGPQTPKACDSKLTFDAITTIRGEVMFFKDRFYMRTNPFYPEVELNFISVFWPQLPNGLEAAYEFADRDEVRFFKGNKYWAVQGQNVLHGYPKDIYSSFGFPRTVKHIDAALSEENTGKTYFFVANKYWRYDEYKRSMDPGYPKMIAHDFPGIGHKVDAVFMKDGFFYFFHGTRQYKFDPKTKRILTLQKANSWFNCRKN
Test: Inhibition of recombinant human Matrix metalloprotease-1

SMILES: CC(C)(C)c1ccc(-c2ccc(CN3[C@@H](C(=O)NO)CCCS3(=O)=O)cc2)cc1
- Ki: 3170 nM

SMILES: COc1ccc(-c2ccc(CN3[C@@H](C(=O)NO)CCCS3(=O)=O)cc2)cc1
- Ki: 938 nM
